By UniProt entry, the sequences of proteins in these tests, tags left out.
UniProt Q63380, whole entry: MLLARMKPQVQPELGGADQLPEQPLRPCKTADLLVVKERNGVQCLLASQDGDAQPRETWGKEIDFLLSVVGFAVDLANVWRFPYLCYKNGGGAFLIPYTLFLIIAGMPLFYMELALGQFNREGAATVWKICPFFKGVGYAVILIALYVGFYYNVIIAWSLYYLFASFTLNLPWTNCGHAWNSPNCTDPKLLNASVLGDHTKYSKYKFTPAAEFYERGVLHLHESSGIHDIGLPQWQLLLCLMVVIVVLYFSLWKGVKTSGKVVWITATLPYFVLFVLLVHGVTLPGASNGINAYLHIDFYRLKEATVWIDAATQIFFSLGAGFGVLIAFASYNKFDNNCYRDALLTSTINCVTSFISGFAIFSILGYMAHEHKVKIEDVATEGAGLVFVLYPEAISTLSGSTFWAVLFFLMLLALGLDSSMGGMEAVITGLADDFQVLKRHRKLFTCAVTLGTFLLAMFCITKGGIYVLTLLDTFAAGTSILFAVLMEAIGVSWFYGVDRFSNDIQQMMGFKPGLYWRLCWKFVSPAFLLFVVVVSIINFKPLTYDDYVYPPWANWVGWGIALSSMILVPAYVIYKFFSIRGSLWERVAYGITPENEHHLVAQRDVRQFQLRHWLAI

In ChEMBL document CHEMBL1955715 (Bioorg Med Chem Lett, 2012):

Target: Transporter (Rattus norvegicus, UniProt Q63380)
Test: Inhibition of rat NET-mediated norepinephrine reuptake

NC(=O)C[S+]([O-])C(c1ccccc1)c1ccccc1 (stereo unspecified) [MODAFINIL]
IC50: 63.9 µM
